Experimental data published in patent US20040259250A1 (published 2004).

Target: epidermal growth factor receptor (EGFR)
Assay: cell-based or functional assay

B1: DEDSH2 adaptor molecule comprising the death effector domain of FADD and the SH2 domain of Grb2 (other, not shown: small tags and cut ends)
chain: MDPFLVLLHSLSGSLSGNDLMELKFLCRERVSKRKLERVQSGLDLFTVLLEQNDLERGHTGLLRELLASLRRHDLLQRLDDFENSWFFGKIPRAKAEEMLSKQRHDGAFLIRESESAPGDFSLSVKFGNDVQHFKVLRDGAGKYFLWVVKFNSLNELVDYHRSTSASRNQQIFLRDIEQ
caspase 8 activity: 6 fold
